Legend:
5HT2 receptors = target: T1, 5HT2 receptors (Rattus norvegicus, UniProt P14842); test: Antagonism of serotonin contraction in isolated rat jugular vein (apparent dissociation constant); type: cell-based; details: for Kb: rat jugular vein, agonist serotonin, antagonist incubated one hour, n in parentheses, read-out: 5HT2 -Log KB ± S.E. (converted)
T1 construct: their external jugular veins and thoracic aortas dissected free of connective tissue; from tissue; host or cells: external jugular vein of male Wistar rats
Protocol: (§1) The apparent dissociation constants (KB) are a measure of affinity for 5HT2 and alpha receptors and are expressed as the negative logarithm and are determined according to the following protocol.
(§2) Male Wistar rats (150-300 gram weight) were killed and their external jugular veins and thoracic aortas dissected free of connective tissue, cannulated in situ and placed in a modified Krebs' bicarbonate buffer in a suitable tissue bath. Two L-shaped 30-gauge stainless-steel hypodermic needles were inserted in each cannula and the dissected vessels gently pushed onto the needles. One needle was attached with thread to a stationary glass rod and the other to the transducer. [The procedure employed was that described by Hooker, Calkins and Fleisch, Blood Vessels, 14, 1, (1977) for use with circular smooth muscle preparations.]
(§3) The modified Krebs' bicarbonate buffer had the following makeup: (concentrations in millimoles): sodium chloride, 118.2; potassium chloride, 4.6; calcium chloride dihydrate, 1.6; potassium dihydrogenphosphate, 1.2; magnesium sulfate, 1.2; dextrose, 10.0; sodium bicarbonate, 24.8; and water q.s. to 1000 g. The tissue baths were maintained at 37° C. and were aerated with 95% oxygen-5% CO2. An initial optimum resting force of 1 and 4 g. was applied to the jugular vein and aorta, respectively. Isometric contractions were recorded as changes in grams of force on a Beckman Dynograph with Statham UC-3 transducers and microscale accessory attachment. Tissues were allowed to equilibrate 1 to 2 hours before exposure to drugs. […] Contraction to serotonin was evaluated in the jugular vein since this tissue produces marked responses to serotonin in the absence of alpha receptors--see Cohen and Wiley, J. Pharm. […] Alpha receptor antagonist activity was evaluated in the aorta.
Apparent antagonist dissociation constants were determined for each concentration of antagonist according to the following equation: [formula] wherein [B] is the concentration of the antagonist and the dose ratio is the ED50 of the agonist in the presence of the antagonist divided by the control ED50.

By UniProt entry, the sequences of proteins in these tests, tags left out.
UniProt P14842, whole entry: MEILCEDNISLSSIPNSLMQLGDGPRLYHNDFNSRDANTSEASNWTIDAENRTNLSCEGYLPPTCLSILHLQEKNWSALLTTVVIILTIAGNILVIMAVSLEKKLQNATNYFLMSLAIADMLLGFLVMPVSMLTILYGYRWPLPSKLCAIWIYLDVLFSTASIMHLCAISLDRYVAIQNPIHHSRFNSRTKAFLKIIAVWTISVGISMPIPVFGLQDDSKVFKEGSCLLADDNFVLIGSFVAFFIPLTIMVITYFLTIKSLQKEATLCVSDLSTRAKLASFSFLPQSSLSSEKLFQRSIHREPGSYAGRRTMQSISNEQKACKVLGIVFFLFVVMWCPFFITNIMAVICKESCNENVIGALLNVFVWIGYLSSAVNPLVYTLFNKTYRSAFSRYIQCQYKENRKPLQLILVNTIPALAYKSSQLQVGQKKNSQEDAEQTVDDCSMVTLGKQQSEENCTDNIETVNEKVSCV
UniProt P23944, whole entry: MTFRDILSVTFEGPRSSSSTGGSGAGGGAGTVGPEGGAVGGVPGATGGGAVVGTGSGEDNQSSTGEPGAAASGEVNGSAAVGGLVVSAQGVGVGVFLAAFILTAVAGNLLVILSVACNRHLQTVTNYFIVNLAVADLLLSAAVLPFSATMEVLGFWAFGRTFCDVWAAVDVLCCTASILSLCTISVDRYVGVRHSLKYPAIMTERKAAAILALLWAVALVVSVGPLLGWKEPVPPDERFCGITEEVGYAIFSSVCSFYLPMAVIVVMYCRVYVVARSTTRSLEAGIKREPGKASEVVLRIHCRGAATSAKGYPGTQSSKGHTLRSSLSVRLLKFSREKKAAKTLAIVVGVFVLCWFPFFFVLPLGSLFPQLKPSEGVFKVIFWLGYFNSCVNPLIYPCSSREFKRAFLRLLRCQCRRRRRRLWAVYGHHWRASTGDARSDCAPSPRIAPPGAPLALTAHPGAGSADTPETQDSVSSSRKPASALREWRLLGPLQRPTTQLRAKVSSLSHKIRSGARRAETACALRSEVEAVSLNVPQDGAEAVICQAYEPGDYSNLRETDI

alpha receptors = target: T2, alpha receptors (Rattus norvegicus, UniProt P23944); test: Antagonism of norepinephrine contraction in isolated rat aorta (apparent dissociation constant, dose ratio); type: cell-based; details: agonist norepinephrine, antagonist incubated one hour, n in parentheses, read-out: alpha -Log KB ± S.E. (converted)
T2 construct: their external jugular veins and thoracic aortas dissected free of connective tissue; from tissue; host or cells: thoracic aorta of male Wistar rats
Protocol: as §1
as §2, with “[The procedure employed was that described by Hooker, Calkins and Fleisch, Blood Vessels, 14, 1, (1977) for use with circular smooth muscle preparations.]” left out
as §3, with “The tissue baths were maintained at 37° C. and were aerated with 95% oxygen-5% CO2. An initial optimum resting force of 1 and 4 g. was applied to the jugular vein and aorta, respectively.” left out, “attachment.” for “attachment. Tissues were allowed to equilibrate 1 to 2 hours before exposure to drugs.”, “aorta. […]” for “aorta.”

| Kb (alpha receptors) | Compound | Ratio KB alpha / KB 5HT2 (5HT2 receptors; rat aorta KB over rat jugular vein KB) | Kb (5HT2 receptors) |
| --- | --- | --- | --- |
|  | O=c1n(CCCN2CCN(c3cccc(Cl)c3)CC2)nc2ccccn12 [Trazodone] | 79 | 2000 pM |
| 100 ± 0.9 pM | O=C(CCCN1CCC2(CC1)C(=O)NCN2c1ccccc1)c1ccc(F)cc1 [Spiperone] |  | 79.4 pM |

Reference: US4563461A, “Selective method for blocking 5HT2 receptors” (Eli Lilly and Company, priority 1983, dated 1986)
